Measured values reported in patent publication US20130216666A1, “CASHEW NUT SHELL LIQUID WITH IMPROVED STABILITY” (IDEMITSU KOSAN CO., LTD., priority 2010, published 2013).

Settings: 10% by weight in unheated CNSL, 80° C.

O=P(O)(O)O [Phosphoric Acid, phosphoric acid]
Cardanol 15:1 Composition (%) (Day 0): 1.54% | Cardanol 15:1 Composition (%) (Day 3): 1.53%

Where two headings read alike, the source gives them in different places.
